Like-named read-outs stand apart in the source and are kept apart here.
Columns and labels:
[1] = PK and biodistribution of anti-Vimentin VHH conjugates in mice (ELISA, immunofluorescence); type: in vivo; conditions: 24 hours post injection; for HSA levels in organs (brain, heart, spleen, lung, tail, liver): mice injected with VHH-carrier conjugate, HSA ELISA
Protocol: Additionally, various tissues were harvested from the mice at 24 hours post injection to evaluate biodistribution. Tissues included liver, spleen, kidneys, lungs, heart and brain.
Initial analysis focused on the detection and measurement of the payload, i.e., the VHH. Samples were analyzed by an ELISA used for detection of VHH as well as by an ELISA designed to measure the intact carrier-VHH conjugate. […] Analysis of VHH levels in plasma samples taken at 24 hours post injection could not detect any VHH regardless of whether it was unmodified or part of the conjugate. […] This hypothesis was further supported by results of ELISA (FIG. 28) and immunofluorescence analysis (FIG. 29) of VHH in the various tissues.
Understanding that the payload VHH was prematurely cleaved in the plasma, the levels of the carrier itself were analyzed in the various collected organs. An ELISA directed only at the HSA protein was used to analyze extracts of brain, heart, spleen, lung, tail and liver from the injected animals. […] These ELISA results were corroborated by immunofluorescence results showing high levels of the HSA-PEI×8 protein in spleen cryosections stained with an anti-HSA-FITC antibody (FIG. 32C).

[2] = PK and biodistribution of PEI-modified HSA carriers in mice with B-16 melanoma tumors (anti-HSA ELISA); type: in vivo; conditions: IV 250 nmol/Kg
Protocol: The carriers were IV injected at a dose of 250 nmol/Kg. PK and biodistribution of the tested carriers were evaluated using anti-HSA ELISA.
In contrast, when the VHH was directly conjugated with PEI1800 at its C-terminus the clearance from blood was very rapid (FIG. 25B, Table 2). The plasma exposure levels of both carriers can be seen in FIG. 25C.

[3] = mouse, in vivo, 60 nmol/kg
[4] = In vivo PK study of 3rd generation linkers (hindered PEGs and peptide linkers), two side ELISA; conditions: Balb-c mice, 60 nmol/Kg, plasma
SU8686 cells = assay: Annexin V apoptosis of SU8686 pancreatic ductal carcinoma cells (Incucyte); type: cell-based
From the text: The carrier was modified with either 8 or 3.5 PEI molecules. The apoptotic state of the cells was monitored using the classical Annexin V assay and was visualized using the Incucyte® continuous cell monitoring system. […] This is likely due to enhanced internalization and quicker kinetics, especially of the endosomal escape process.

Substance | HSA levels in organs (brain, heart, spleen, lung, tail, liver) [1] | AUC-0-t [2] | Clearance [2] | carrier (HSA) levels in plasma ([1]; mice, HSA-specific ELISA) | AUC0-inf [3] | AUC0-t [3] | C0 [3] | Cmax [3] | AUC0-t [4] | C0 [4] | CL [4] | Cmax [4] | apoptosis (Annexin V) (SU8686 cells)
HSA-PEI × 3.5: HSA carrier modified with an average of 3.5 PEI units | detected at very low levels in all organs | 578 µg·h/mL | 0.432 mL/min/kg | – | – | – | – | – | – | – | – | – | –
Human Serum Albumin [HSA] | detected at very low levels in all organs | – | – | significant levels | 2300.5 µg·h/mL | 2084.3 µg·h/mL | 118.7 µg/mL | 113.0 µg/mL | 1226.9 µg·h/mL | 75.6 µg/mL | 0.064 mL/min/kg | 74.1 µg/mL | –
HSA-PEI × 8: HSA carrier modified with an average of 8 PEI units | detected at very high levels in all organs, except lungs and tail | 22 µg·h/mL | 12.2 mL/min/kg | – | – | – | – | – | – | – | – | – | baseline levels of apoptosis

From patent US12544451B2, “Intracellular delivery compositions” (BIOND BIOLOGICS LTD., priority 2021, dated 2026)
